For the assay, the target named is beta actin; beta cytoskeletal actin (UniProt P60709 2-375). The experiment in a line: co-immunoprecipitation with Flag-UCH-L1 from transfected HEK293T cells, 2D-PAGE, MALDI-TOF MS (spot 9). How it is done: For the analysis using MALDI-TOF mass spectrometry, the proteins were separated on 2D-PAGE and then stained with coomassie dye. After being identified, the proteins (spots) on gels were excised and stored in eppendorf tubes. The excised gels were homogenized in 30% methanol (1 mL) and then incubated at 37° C. for 5 min. These gels were destained three times with 100 μL of 25 mM ammonium bicarbonate (NH₄HCO₃)/50% acetonitrile solution for 10 min, dehydrated with 100% acetonitrile, and completely dried using Speed Vac vacuum centrifuge. The trypsin (10 μL, 10 ng/mL) solution including 25 mM NH₄HCO₃ was added to the dried gels and reacted with them at room temperature for 5-10 min and successively at 4° C. for 30 min. Next, 20 μL of 25 mM NH₄HCO₃ was added thereto. These gels treated with trypsin and 25 mM NH₄HCO₃ (20 μL) were incubated at 37° C. for 12-16 h additionally. Here, 30 μL of 60% acetonitrile/0.1% TFA (1:1 v/v) solution was added. These gels were incubated at 37° C. for 10 min. […]
To examine the interacting protein profiles of various UCH-L1 isoforms respectively according to oxidative stress, HEK293 cells was treated with H₂O₂. The H₂O₂ treated cell lysates were immunoprecipitated and analyzed by 2D-PAGE (FIG. 8B) and MALDI-TOF MS in comparison with them of the control cells.

B1: flag-tagged UCH-L1 (Ubiquitin C-terminal hydrolase-L1) expressed from pFlag-CMV-2-UCH-L1 (enzyme)
chain: MQLKPMEINPEMLNKVLSRLGVAGQWRFVDVLGLEEESLGSVPAPACALLLLFPLTAQHENFRKKQIEELKGQEVSPKVYFMKQTIGNSCGTIGLIHAVANNQDKLGFEDGSVLKQFLSETEKMSPEDRAKCFEKNEAIQAAHDAVAQEGQCRVDDKVNFHFILFNNVDGHLYELDGRMPFPVNHGASSEDTLLKDAAKVCREFTEREQGEVRFSAVALC
notes: Full-length UCH-L1 with a Flag tag, transiently expressed inside HEK293T (immunoprecipitation) or H358 cells (confocal microscopy); also called PGP9.5; not shown: Flag tag from the pFlag-CMV-2 vector (sigma)
On to B1, for which the binding result is recorded as “binds”.

The values above are taken from patent publication US20090208508A1 (SK, published 2009).
